Inhibition data for 27 compounds are collected here from PubChem BioAssay AID1434 (Sanford-Burnham Center for Chemical Genomics, 2008).

Amino acid sequences for entries named in this document (tags omitted).
UniProt Q01196, whole entry, looked up: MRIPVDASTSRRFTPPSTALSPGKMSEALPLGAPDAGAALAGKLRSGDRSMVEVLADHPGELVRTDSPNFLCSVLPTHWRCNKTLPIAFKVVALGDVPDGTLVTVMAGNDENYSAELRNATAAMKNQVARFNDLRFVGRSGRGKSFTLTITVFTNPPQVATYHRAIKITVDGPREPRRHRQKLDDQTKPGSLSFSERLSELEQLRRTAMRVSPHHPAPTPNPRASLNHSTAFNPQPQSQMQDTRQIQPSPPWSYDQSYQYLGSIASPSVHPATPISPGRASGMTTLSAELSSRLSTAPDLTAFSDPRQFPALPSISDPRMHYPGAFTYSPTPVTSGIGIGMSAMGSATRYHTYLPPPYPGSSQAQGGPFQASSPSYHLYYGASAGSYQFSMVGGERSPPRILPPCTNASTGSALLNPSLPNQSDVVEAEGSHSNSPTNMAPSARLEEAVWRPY
UniProt Q13951, whole entry, looked up: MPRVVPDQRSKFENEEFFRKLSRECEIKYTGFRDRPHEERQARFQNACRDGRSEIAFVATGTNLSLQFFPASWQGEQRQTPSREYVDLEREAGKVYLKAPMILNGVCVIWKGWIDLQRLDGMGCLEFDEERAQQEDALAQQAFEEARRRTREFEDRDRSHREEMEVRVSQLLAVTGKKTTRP

The list shows a part of the results, in another mix than the full data. The source made the active and inactive calls.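 The calls were made as follows: active = mean inhibition across duplicate retests at 20 µM reaching about 50% (limit read from the data); inactive = the rest, inconclusive results apart.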

The target of this experiment is Runt-related transcription factor 1 (Homo sapiens) + Core-binding factor subunit beta (Homo sapiens) (UniProt Q01196+Q13951). The experiment in a line: inhibitors of RUNX1 Runt–CBFb-SMMHC binding, primary screen, biochemical, FRET, Cerulean-Runt, Venus-CBFb-SMMHC, uHTS (AID 1434).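 Also: 0% = DMSO wells and 100% = wells with excess untagged CBFb-SMMHC; inhibitors lower the FRET ratio by blocking Runt binding to CBFb-SMMHC.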 The conditions noted are these: Cerulean-Runt/Venus-CBFb-SMMHC FRET ratio 530/480, 1 h; at 20 µM; hits give high values.
Consider `O=[As](O)(c1ccccc1)c1ccc(O)cc1`, for which the inhibition (usually the drop in the measured response relative to a control, in per cent) was inactive: 1.2%.
For the compound `C[C@H]1OP(=O)(Oc2ccccc2)[C@H](O)[C@H](O)[C@H]1N=[N+]=[N-]` (some centres not stated), the inhibition is inactive: -3.8%.
For `O=P(Nc1nc2ccccc2s1)(c1ccccc1)c1ccccc1` the value was inactive: -1.2%; for `O=P(Nc1ccccn1)(c1ccc(Br)cc1)c1ccc(Br)cc1`, inactive: -3.1%.
Next, `CN(C)C(=O)Oc1noc2ccccc12`: inactive: -2.9%; `O=c1c2cc([N+](=O)[O-])ccc2[nH]c2c([N+](=O)[O-])cc([N+](=O)[O-])cc12`: inactive: -9.3%; `Cc1ccccc1OP(=O)(Nc1ccccn1)Oc1ccccc1C`: inactive: 1.4%.
Take `CC(=O)NC(SC(=S)N(CC(C)C)CC(C)C)C(Cl)(Cl)Cl` (configuration not stated): the inhibition was inactive: 2.8%.
Next, `Cc1ccc(OP(=O)(Nc2ccccn2)Oc2ccc(C)cc2)cc1`: inactive: 12.7%.
Regarding `COC(=O)c1cc2c(s1)N=C(c1ccccc1)N(C)P2(=O)N1CCOCC1` (configuration not stated), the inhibition is inactive: 0.2%.
On to `CCC(=O)N1C2C3N(C(=O)CC)C1C1N(C(=O)CC)C(C(N1C(=O)CC)N3C(=O)CC)N2C(=O)CC`, for which the inhibition is inactive: 2.7%.
For `CCNC(=S)/N=C(\N)N[N+](=O)[O-]`, the inhibition was inactive: -0.2%.
Next, `O=C(NC1CCS(=O)(=O)C1)NP(=S)(Oc1ccccc1)Oc1ccccc1` (configuration not stated): inactive: 1.8%.
In the case of `Cc1ccc(NP(=O)(Oc2cccc(C)c2)Oc2cccc(C)c2)nc1`, the inhibition is inactive: -7.3%.
Next, `CCOC(=O)NC(Sc1ccccc1)C(Cl)(Cl)Cl` (configuration not stated): inactive: 0.1%; `c1ccc(-c2nn[nH]n2)c(-c2nn[nH]n2)c1`: inactive: -4.6%.
Turning to `CC(=O)Nc1ccc(Oc2c([N+](=O)[O-])cc([N+](=O)[O-])cc2[N+](=O)[O-])cc1`, the inhibition is inactive: 3.1%.
For `CC(=O)Nc1ccc([As](=O)(O)O)c(O)c1`, the inhibition is inactive: -2.5%.
Take `C[C@@H]1C=CCP(=O)(Oc2ccccc2)O1` (some centres not stated): the inhibition was inactive: 0.6%.
For `C[C@H]1OP(=O)(Oc2ccccc2)C[C@@H]2O[C@@H]21` (some centres not stated) the value was inactive: 1.3%.
On to `CC(C)(C)C(=O)NC(Sc1ccccc1)C(Cl)(Cl)Cl` (configuration not stated), for which the inhibition was inactive: -1.8%.
For the compound `CCOc1ccc(C2=NCC(CBr)S2)cc1` (configuration not stated), the inhibition is inactive: -0.2%.
In the case of `O=P1(Nc2nc3ccc(Cl)cc3s2)COc2ccccc2O1` (configuration not stated), the inhibition is inactive: 1.1%.
Turning to `CC(C)CC(=O)NC(Sc1ccc(Cl)cc1)C(Cl)(Cl)Cl` (configuration not stated), the inhibition is inactive: -0.9%.
Take `Nc1cc(N)c2nonc2c1[N+](=O)[O-]`: the inhibition is inactive: -9.2%.
With `Cc1c2non([O-])c-2c(C)[n+](=O)[n+]1[O-]`, the inhibition was inactive: 8.6%.
Turning to `O=C(NC(Sc1ccncn1)C(Cl)(Cl)Cl)c1ccccc1` (configuration not stated), the inhibition is inactive: -2.7%.
